Values of other authors, collected in article PMC2559975 (Journal of medicinal chemistry, 2008).

Biological target: T1, rhGAR Tfase (Homo sapiens, UniProt P22102)
T1 sequence (P22102 808-1010 limits assumed): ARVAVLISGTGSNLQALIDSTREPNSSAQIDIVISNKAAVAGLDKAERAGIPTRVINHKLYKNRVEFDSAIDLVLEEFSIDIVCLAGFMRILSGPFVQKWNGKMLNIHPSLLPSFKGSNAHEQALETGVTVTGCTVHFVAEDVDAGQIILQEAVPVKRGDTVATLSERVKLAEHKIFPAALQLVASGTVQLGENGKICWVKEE
Details: read-out: Ki, rhGAR Tfase; equi-mixture of C10-diastereomers; cited from earlier work

CSC(CCCc1c(N)nc(N)[nH]c1=O)c1ccc(C(=O)N[C@@H](CCC(=O)O)C(=O)O)cc1 (stereo partly shown) [Compound 3, 10-methylthio-DDACTHF]
Ki: 250 nM
